Values quoted from earlier work as cited in patent US20240173315A1 (OWP Pharmaceuticals, Inc., priority 2022, published 2024).
Where a name gives a salt, the structure may show the parent alone.

Settings: humans, oral, taken shortly after ingestion of food

effect of food on maximum concentration: decrease
effect of food on time to maximum concentration: lengthening
Compound: O=c1n(CCCN2CCN(c3cccc(Cl)c3)CC2)nc2ccccn12 [trazodone hydrochloride]
